We go through one molecule from publication doi:10.1101/2020.01.19.911941 (bioRxiv, 2020).

The test concerns the target T1, human PD-L2 (#10292-H08H, SinoBiological) (human, UniProt Q9BQ51).
T1 sequence: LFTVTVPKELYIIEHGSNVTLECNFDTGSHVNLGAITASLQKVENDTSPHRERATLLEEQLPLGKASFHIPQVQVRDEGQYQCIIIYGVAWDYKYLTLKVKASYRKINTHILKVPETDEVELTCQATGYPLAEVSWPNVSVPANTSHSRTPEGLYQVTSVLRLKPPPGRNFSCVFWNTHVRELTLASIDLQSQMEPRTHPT
The experiment in a line: SPR. A general note: SPR reads the build-up and loss of mass on a sensor chip optically.

B1: sPD-1 WT Fc (Fc fusion)
chain: LDSPDRPWNPPTFSPALLVVTEGDNATFTCSFSNTSESFVLNWYRMSPSNQTDKLAAFPEDRSQPGQDCRFRVTQLPNGRDFHMSVVRARRNDSGTYLCGAISLAPKAQIKESLRAELRVTERRAEVPTAHPSPSPRPAGQFQTLV
Take B1: the binding result is reported as “binds”.
